## Measured affinities in a library of Ab-14 heavy chain variants

Values reported by Li et al. 2023, doi:10.1038/s41467-023-39022-2 (FLAb copy).

The target is the same throughout: PDVDLGDISGINAS, from the HR2 region of SARS-CoV-2 spike.

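The parent was found by panning a naive human phage display library on the peptide. This is the validation round: designs drawn from the data on random variants, tested in the same kind of assay. Group labels follow the data file (Ctrl: baseline library sampled from a position-specific scoring matrix, with some repeated check sequences; GP: Gaussian process model; HC: hill climbing; a sequence that several methods proposed may carry one label only). Affinity was read by AlphaSeq, a pooled yeast mating assay with surface-displayed partners. Mating (16 h, 30 °C) was followed by selection of diploids and sequencing of their barcodes. The ratio of observed to expected reads was calibrated, replicate by replicate, on BCL2-family standards whose Kd was known from biolayer interferometry. The assay was run in six technical replicates.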

The variants keep the light chain, the linker and the frameworks of Ab-14 (scFv order VH, a (GGGGS)3 linker, VL).
VH: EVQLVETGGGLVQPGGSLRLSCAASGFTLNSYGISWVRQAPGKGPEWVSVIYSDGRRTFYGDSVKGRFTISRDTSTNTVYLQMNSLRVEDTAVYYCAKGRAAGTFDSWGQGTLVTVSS
VL: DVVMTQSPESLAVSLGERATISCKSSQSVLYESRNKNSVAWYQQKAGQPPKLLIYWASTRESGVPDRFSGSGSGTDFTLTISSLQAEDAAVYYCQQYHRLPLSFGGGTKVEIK

The parent's heavy chain CDRs are GFTLNSYGIS, VIYSDGRRTFYGDSVK, GRAAGTFDS; each variant's own CDRs replace them letter for letter.
The read-out is the apparent dissociation constant on a log10 scale (nM): the lower, the stronger.
The mean shown is taken over the replicates in which the pair was detected.
A pair that was not seen in that replicate is written "n.d."; this usually means weak binding, but a binder can also be missed.

| CDR-H1 | CDR-H2 | CDR-H3 | group | log10 Kd (nM) by replicate | mean, log10 nM | empty controls |
|---|---|---|---|---|---|---|
| GFNLNSYGIS | VIYSDGRRTFYGDDVK | GRAAGTFDS | Ctrl | 1.41 / 1.28 / 0.64 / 0.81 / 1.48 / 1.21 | 1.14 | 0 of 18 |
| GFTLNSYGIS | VIYSDGRRTAYIDSVR | GRAAGTFDL | Ctrl | 0.67 / 0.92 / 0.47 / 0.44 / 0.46 / 1.20 | 0.69 | 0 of 18 |
| GDTLNSYGIS | VIYSDGRRTFYGDSVK | GHIALTFDD | Ctrl | n.d. / n.d. / n.d. / n.d. / n.d. / n.d. | n.d. | 0 of 18 |
| GFTLNSYGIS | VIYADGWRTFYEDSVK | GRAAGTFDS | Ctrl | 1.15 / 1.29 / 0.56 / 1.68 / 1.39 / 1.24 | 1.22 | 1 of 18 (1.65) |
| GFELNSYGIS | VIYSDGMRTFYGDSVK | ARAAGTFDS | Ctrl | n.d. / n.d. / n.d. / n.d. / n.d. / n.d. | n.d. | 0 of 18 |
| GFTLRSYGIS | VIYSDGKRTFYGDSVK | GRAAGTFDS | Ctrl | n.d. / n.d. / n.d. / n.d. / 1.46 / n.d. | 1.46 | 0 of 18 |
| GHTLNSYGIS | VIYSDGRRTFYGDSVD | GRAAGTFDQ | Ctrl | n.d. / n.d. / n.d. / n.d. / n.d. / n.d. | n.d. | 0 of 18 |
| GFTLNSYGIS | VIYSDGRRTYYGDSVR | GRVAGTFDS | Ctrl | 0.64 / 0.21 / n.d. / 1.09 / 0.39 / 0.77 | 0.62 | 0 of 18 |
| GFTLNSYGIS | VIASDGRRTFYGDSVK | GRAAGTFDS | Ctrl | n.d. / n.d. / n.d. / n.d. / n.d. / n.d. | n.d. | 0 of 18 |
| GITLNSYGIS | VIYSDGVRTFYGDSVK | TRAAGYFIE | Ctrl | n.d. / n.d. / n.d. / 1.95 / n.d. / n.d. | 1.95 | 0 of 18 |
| GFTLNSYGID | VIYSDGRRTFYEDSVK | GRAADTKDS | Ctrl | n.d. / n.d. / n.d. / n.d. / n.d. / n.d. | n.d. | 0 of 18 |
| GFTLENYGIS | VIYADGRRTFYGDSVK | GRAAGTFDS | Ctrl+GP_HC | -0.18 / 0.09 / 0.13 / 0.16 / -0.17 / -0.08; 0.47 / 0.37 / 0.72 / -0.02 / 0.19 / 0.48 | 0.18 | 1 of 36 (2.85) |
| GFTLNSYGIS | VIYSDGRRTFYGDSVK | GYAADTFDS | Ctrl | 1.21 / 0.90 / 0.77 / 0.40 / 0.88 / 0.96 | 0.85 | 0 of 18 |
| HFTVNSYGIS | VIYSDGRRTFYGDSVK | GRAAGTFDS | Ctrl | n.d. / n.d. / n.d. / n.d. / n.d. / n.d. | n.d. | 0 of 18 |
| GFTLNSYGIS | VIYSDGRRTAYQDSVK | GEAAGTFDS | Ctrl | 1.48 / 0.18 / 0.37 / 0.19 / 0.33 / 0.82 | 0.56 | 1 of 18 (1.54) |
| GFTLNDYGIS | VIYSDGRRTFYGDSVK | GRFAGTFDS | Ctrl | 1.63 / 1.66 / 1.88 / 0.66 / 3.18 / 1.34 | 1.72 | 0 of 18 |
| GFTLNSYGIS | VIYSDGRRTSYGDSVK | GRAAGTFVS | Ctrl | n.d. / n.d. / n.d. / n.d. / n.d. / n.d. | n.d. | 0 of 18 |
| GFGLNSYGIS | VIYADGRRTFYGDSVK | GRAMGTFDS | Ctrl | n.d. / n.d. / n.d. / n.d. / n.d. / n.d. | n.d. | 0 of 18 |
| GFSLNEYGIS | VIYSDGRRTFYGDSVK | GRAAQTFDS | Ctrl | n.d. / n.d. / n.d. / n.d. / n.d. / n.d. | n.d. | 0 of 18 |
| GFDLNEYGIS | VIYSDGRRTFYIDSVK | GRAAGTFDS | Ctrl+GP_HC | 0.37 / 0.67 / 0.39 / 0.63 / 0.65 / 0.93; 0.17 / 0.13 / 0.57 / 1.92 / -0.69 / 0.09 | 0.49 | 1 of 36 (4.69) |
| GFTLNMYGIS | VIYSDGRRTFYGDSVR | GRAAGTFDS | Ctrl | n.d. / 1.42 / n.d. / 2.32 / n.d. / 2.60 | 2.11 | 3 of 18 (2.14) |
| GTTLNSYGIS | VIYSDGLRTFMTDSVK | GEAAGTFDS | Ctrl | n.d. / n.d. / n.d. / n.d. / n.d. / n.d. | n.d. | 0 of 18 |
| GFTLNSYGIS | VIYSDGRRTFYGDSVK | GNNAGTFNS | Ctrl | n.d. / 1.17 / n.d. / n.d. / 0.61 / 1.59 | 1.13 | 0 of 18 |
| GATLNSYGGS | VIYSDGRRTFYGDSVK | GRAAGTFDS | Ctrl | n.d. / 2.14 / n.d. / n.d. / n.d. / n.d. | 2.14 | 1 of 18 (2.71) |
| GRTLDSYGIS | VIYSDGRRTFYGDSVK | GRIAGTMDM | Ctrl | n.d. / n.d. / n.d. / n.d. / n.d. / n.d. | n.d. | 0 of 18 |
| GFTLKSHGIS | VIYSDGFRTFYGDSVK | GRAAGTGDS | Ctrl | n.d. / n.d. / n.d. / n.d. / 1.34 / n.d. | 1.34 | 0 of 18 |
| GFTLNSYGIS | VIYSDGYRTFYGDSVK | GRATDTFDT | Ctrl | 1.09 / -0.24 / -0.07 / -0.42 / -0.19 / 0.15 | 0.05 | 0 of 18 |
| GFTLNDYGIS | VIYSDGRRTMYGDSVK | GRAAQTFDS | Ctrl | n.d. / n.d. / n.d. / n.d. / n.d. / n.d. | n.d. | 1 of 18 (1.11) |
| GFTLNSYGIS | VIYSDWRRTFYGDSVK | GRDAGTFDS | Ctrl | n.d. / n.d. / n.d. / n.d. / n.d. / n.d. | n.d. | 0 of 18 |
| RFTLNSYGIS | VIYSDGRRTFYGDSVK | GSAAATFRS | Ctrl | n.d. / n.d. / n.d. / n.d. / n.d. / n.d. | n.d. | 0 of 18 |
| GRTLNSYGIS | VIYSDGRRTFYGDSVK | GRAAGTFRS | Ctrl | n.d. / n.d. / n.d. / n.d. / n.d. / n.d. | n.d. | 0 of 18 |
| GFTLNSYGIS | VIYSDGMRTFYGDSVR | GTAAGTFDS | Ctrl | 0.35 / 0.38 / -0.13 / 0.24 / 0.13 / 0.43 | 0.23 | 1 of 18 (2.72) |
| GFTLNSKGIS | VIYADGRRTFYIDSVK | GRAAGTFRS | Ctrl | n.d. / n.d. / n.d. / n.d. / n.d. / n.d. | n.d. | 1 of 18 (2.86) |
| GFQLNSYGIS | VIYADGRRTFYGDSVK | GTAAGTFDS | Ctrl | -0.10 / -0.32 / -0.15 / -0.42 / 0.00 / -0.21 | -0.20 | 1 of 18 (2.30) |
| GFTLNSYGIS | VIYSDGRRTFYGDSVK | GRAAGTYDA | Ctrl | n.d. / n.d. / n.d. / n.d. / n.d. / n.d. | n.d. | 0 of 18 |
| GFTLNSYGIS | VIYSDGRRTFYGDSQK | GRNAGTFDS | Ctrl | n.d. / n.d. / n.d. / n.d. / n.d. / n.d. | n.d. | 0 of 18 |
| GFNLNSYGIS | VIYSDGRRTSYDDSVK | GQAAGTFDS | Ctrl | 0.74 / n.d. / 0.13 / 0.05 / 2.03 / 1.70 | 0.93 | 0 of 18 |
| GHNLNSYGIS | VIYSDGRRTFYGDSVK | GRAAGTFDS | Ctrl | n.d. / n.d. / n.d. / n.d. / n.d. / n.d. | n.d. | 0 of 18 |

Top 5 of the variants detected in all replicates, tightest first:

{"CDR-H1": "GFQLNSYGIS", "CDR-H2": "VIYADGRRTFYGDSVK", "CDR-H3": "GTAAGTFDS", "group": "Ctrl", "log10 Kd (nM) by replicate": "-0.10 / -0.32 / -0.15 / -0.42 / 0.00 / -0.21", "mean, log10 nM": "-0.20", "empty controls": "1 of 18 (2.30)"}
{"CDR-H1": "GFTLNSYGIS", "CDR-H2": "VIYSDGYRTFYGDSVK", "CDR-H3": "GRATDTFDT", "group": "Ctrl", "log10 Kd (nM) by replicate": "1.09 / -0.24 / -0.07 / -0.42 / -0.19 / 0.15", "mean, log10 nM": "0.05", "empty controls": "0 of 18"}
{"CDR-H1": "GFTLENYGIS", "CDR-H2": "VIYADGRRTFYGDSVK", "CDR-H3": "GRAAGTFDS", "group": "Ctrl+GP_HC", "log10 Kd (nM) by replicate": "-0.18 / 0.09 / 0.13 / 0.16 / -0.17 / -0.08; 0.47 / 0.37 / 0.72 / -0.02 / 0.19 / 0.48", "mean, log10 nM": "0.18", "empty controls": "1 of 36 (2.85)"}
{"CDR-H1": "GFTLNSYGIS", "CDR-H2": "VIYSDGMRTFYGDSVR", "CDR-H3": "GTAAGTFDS", "group": "Ctrl", "log10 Kd (nM) by replicate": "0.35 / 0.38 / -0.13 / 0.24 / 0.13 / 0.43", "mean, log10 nM": "0.23", "empty controls": "1 of 18 (2.72)"}
{"CDR-H1": "GFDLNEYGIS", "CDR-H2": "VIYSDGRRTFYIDSVK", "CDR-H3": "GRAAGTFDS", "group": "Ctrl+GP_HC", "log10 Kd (nM) by replicate": "0.37 / 0.67 / 0.39 / 0.63 / 0.65 / 0.93; 0.17 / 0.13 / 0.57 / 1.92 / -0.69 / 0.09", "mean, log10 nM": "0.49", "empty controls": "1 of 36 (4.69)"}

Values of this round are not directly comparable with the first-round values of the same sequences.
The authors averaged sequences with at least three values out of six and counted those with two or fewer as poor binders.
Some sequences occur more than once in the pool; their replicates are listed entry by entry, parted by semicolons.
Empty control strains, which show no peptide, gave a signal in 1% of pairings with all heavy chain designs; the median was 2.08 and 95% of these signals were weaker than 0.84. No background was subtracted. For each scFv, signals with the empty controls are counted beside the result, with their mean in brackets.
Of ten entries with the parent sequence, four were seen in most replicates (averages 0.34 to 2.37), three in one and three in none, so single entries are noisy.